Experimental data from patent US12122786B2, “Inhibitors of cyclic mono- and di-nucleotide phosphodiesterases and the uses thereof” (priority 2020, dated 2024).

Biological target: PDE5A (Homo sapiens, UniProt O76074)
Assay: Cyclic mononucleotide phosphodiesterase inhibition (PDE5A), Transcreener fluorescence polarization assay
Details: 10 μM of compound, 1 μM cGMP, 1 h

Row | SMILES | % inhibition (PDE5A)
1 | Cc1ccc(Cl)cc1NC(=O)Cn1cnc2ccccc2c1=O | 67%
2 | Cc1ccc([N+](=O)[O-])cc1NC(=O)Cn1cnc2ccccc2c1=O | 86.00%
3 | CN(C)c1nc(-c2cccnc2)nc2c1CCN(C(=O)c1cccc(O)c1)C2 | 92.00%
4 | Cc1ccc(C)c(NC(=O)Cn2cnc3ccccc3c2=O)c1 | 85.00%
